The chains behind the UniProt entries cited, without tags or fusion partners.
UniProt P14416, whole entry: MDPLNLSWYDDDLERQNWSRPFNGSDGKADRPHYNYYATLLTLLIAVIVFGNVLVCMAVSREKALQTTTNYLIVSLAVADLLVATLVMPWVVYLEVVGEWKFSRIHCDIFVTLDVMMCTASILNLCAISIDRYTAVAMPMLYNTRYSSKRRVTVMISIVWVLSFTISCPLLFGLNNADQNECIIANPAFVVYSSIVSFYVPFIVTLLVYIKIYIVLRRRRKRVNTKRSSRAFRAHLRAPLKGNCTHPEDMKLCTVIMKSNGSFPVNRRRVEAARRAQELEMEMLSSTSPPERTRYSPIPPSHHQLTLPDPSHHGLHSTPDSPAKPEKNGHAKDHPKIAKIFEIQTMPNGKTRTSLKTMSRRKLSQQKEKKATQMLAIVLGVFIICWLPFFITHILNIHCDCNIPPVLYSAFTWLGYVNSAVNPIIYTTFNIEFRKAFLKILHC
UniProt P08908, whole entry: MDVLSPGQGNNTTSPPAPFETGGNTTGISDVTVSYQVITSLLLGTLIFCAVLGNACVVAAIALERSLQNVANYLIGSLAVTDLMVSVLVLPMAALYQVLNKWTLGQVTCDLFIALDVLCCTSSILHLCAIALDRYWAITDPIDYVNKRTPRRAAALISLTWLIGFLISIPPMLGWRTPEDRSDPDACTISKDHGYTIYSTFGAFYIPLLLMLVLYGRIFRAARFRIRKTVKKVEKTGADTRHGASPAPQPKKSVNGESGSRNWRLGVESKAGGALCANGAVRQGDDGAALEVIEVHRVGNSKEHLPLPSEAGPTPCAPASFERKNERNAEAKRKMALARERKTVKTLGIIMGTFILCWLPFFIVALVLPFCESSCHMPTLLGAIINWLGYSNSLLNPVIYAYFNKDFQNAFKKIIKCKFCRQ

In patent publication US20250109139A1, “TRICYCLIC COMPOUND, AND PREPARATION METHOD THEREFOR AND USE THEREOF” (SHANGHAITECH UNIVERSITY, priority 2022, published 2025):

Tests used:
dopamine D2 receptors [1] = target: T1, dopamine D2 receptors (Homo sapiens (Human), UniProt P14416); test: Dopamine D2 receptor β-arrestin2 BRET (recruitment); type: cell-based; conditions: for Emax: relative to endogenous ligand dopamine, read-out: β-arrestin2 BRET Emax % ± SEM
dopamine D2 receptors [2] = target: T1, dopamine D2 receptors; test: Dopamine D2 receptor Gαi1 BRET (G protein trimer dissociation); type: cell-based
[3] = target: T2, 5-hydroxytryptamine 1A (5-HT1A) receptors (Homo sapiens (Human), UniProt P08908); test: 5-HT1A receptor Gαi1 BRET (G protein trimer dissociation); type: cell-based; conditions: relative to endogenous ligand 5-hydroxytryptamine
[4] = target: T2, 5-hydroxytryptamine 1A (5-HT1A) receptors; test: 5-HT1A receptor β-arrestin2 BRET (recruitment); type: cell-based; conditions: relative to endogenous ligand 5-hydroxytryptamine
dopamine D2 receptors [5] = target: T1, dopamine D2 receptors; test: Dopamine D2 receptor radioligand competition binding assay ([3H]-Methylspiperone); conditions: [3H]-Methylspiperone 0.3 to 0.5 nM, 293T membranes; read-out: Affinity Ki

Compound `CCOc1cccc2c3c(oc12)CN(CCCCOc1ccc2ccc(=O)[nH]c2c1)CC3` [I-A16, 7-(4-(8-ethoxy-3,4-dihydrobenzofuro[2,3-c]pyridin-2(1H)-yl)butoxy)quinolin-2(1H)-one] has an Emax (dopamine D2 receptors [1]) of 31%.
Work on `COc1cccc2c3c(oc12)CN(CC[C@H]1CC[C@H](NC(C)=O)CC1)CC3` [I-A11, N-(trans-4-(2-(8-methoxy-3,4-dihydrobenzofuro[2,3-c]pyridin-2(1H)-yl)ethyl)cyclohexyl)acetamide] yielded an EC50 (dopamine D2 receptors [2]; D2 receptor, unit printed only in Cariprazine cell) of 9.34 nM, an Emax (dopamine D2 receptors [2]; read-out: Gαi1 BRET Emax % ± SEM) of 48% and an EC50 (dopamine D2 receptors [1]; read-out: β-arrestin2 BRET pEC50 ± SEM (converted)) of 3.55 nM. For the same compound, the EC50 (dopamine D2 receptors [1]; unit printed only in Cariprazine cell, read-out: β-arrestin2 BRET EC50) was 3.8 nM.
With `COc1cccc2c3c(oc12)CN(CCCn1ncc(=O)n(C)c1=O)CC3` [I-A23, 2-(3-(8-methoxy-3,4-dihydrobenzofuro[2,3-c]pyridin-2(1H)-yl)propyl)-4-methyl-1,2,4-triazine-3,5(2H,4H)-dione] the Emax [3] was 75.2% and the Emax [4] was 41.8%.
With `COc1cccc2c3c(oc12)CN(CCn1c(=O)[nH]c2ccccc21)CC3` [I-A24, 1-(2-(-methoxy-3,4-dihydrobenzofuro[2,3-c]pyridin-2(1H)-yl)ethyl)-1,3-dihydro-2H-benzo[d]imidazol-2-one] the Emax [3] was 107%.
Compound `COc1cccc2c3c(oc12)CN(CCCCOc1ccc2ccc(=O)[nH]c2c1)CC3` [I-A1, 7-(4-(8-methoxy-3,4-dihydrobenzofuro[2,3-c]pyridin-2(1H)-yl)butoxy)quinolin-2(1H)-one] has an Emax (dopamine D2 receptors [1]) of 81%.
With `CC(C)Oc1cccc2c3c(oc12)CN(CCCCOc1ccc2ccc(=O)[nH]c2c1)CC3` [I-A18, 7-(4-(8-isopropoxy-3,4-dihydrobenzofuro[2,3-c]pyridin-2(1H)-yl)butoxy)quinolin-2(1H)-one] the Ki (dopamine D2 receptors [5]) was 88.8 nM.
With `COc1cccc2c3c(oc12)CN(CCNC(=O)C1CCOCC1)CC3` [I-A14, N-(2-(8-methoxy-3,4-dihydrobenzofuro[2,3-c]pyridin-2(1H)-yl)ethyl)tetrahydro-2H-pyran-4-carboxamide] the Emax [3] was 108% and the Emax [4] was 101%.
